{"sequences": {"note": "Sequences of proteins named here, by UniProt entry; tags and fusion partners are left off. Residues count along the entry.", "UniProt P32389, 76-160": "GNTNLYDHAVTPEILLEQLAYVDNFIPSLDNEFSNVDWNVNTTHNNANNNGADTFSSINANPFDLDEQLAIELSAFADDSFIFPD", "UniProt P32389, 114-160": "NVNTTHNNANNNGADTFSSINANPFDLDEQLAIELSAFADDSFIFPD", "UniProt P32389, 76-113": "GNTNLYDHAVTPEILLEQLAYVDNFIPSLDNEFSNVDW"}, "source": "paper PMC8693465", "test_in_all_cases": "BLI; biotinylated Met4 UBD constructs (20 ug/ml) loaded on streptavidin biosensors, quenched with biocytin; K48 tetra-ubiquitin at 1450, 483, 161, 53, 17, 5.6 and 2.8 nM; 50 mM Tris, 150 mM NaCl, 0.01 mg/ml BSA, 0.02% tween 20, pH 7.5; 30 °C; association 30 s, dissociation 90 s", "key": {"[1]": {"target": "Met4 tandem ubiquitin binding domain (tUBD), residues 76-160 (yeast) (UniProt P32389)"}, "[2]": {"target": "Met4 ubiquitin interacting motif (UIM), residues 114-160 (yeast) (UniProt P32389)"}, "[3]": {"target": "Met4 ubiquitin interacting motif-like domain (UIML), residues 76-113 (yeast) (UniProt P32389)"}, "[4]": {"target": "UIMLx2 probe (two tandem repeats of Met4 UIML 76-113) (yeast) (UniProt P32389)"}, "[5]": {"target": "UIMLx3 (three tandem repeats of Met4 UIML 76-113) (yeast) (UniProt P32389)"}, "[6]": {"target": "UIMLx4 (four tandem repeats of Met4 UIML 76-113) (yeast) (UniProt P32389)"}}, "data": [{"substance": "K48-linked tetra-ubiquitin (from UniProt P0CG48 1-76)", "values": [{"measurement": "Kd", "setting": "[1]", "value": 356, "unit": "nM"}, {"measurement": "Kd", "setting": "[2]", "value": 1600, "unit": "nM"}, {"measurement": "kon", "setting": "[2]", "value": 276000, "unit": "M⁻¹ s⁻¹"}, {"measurement": "Kd", "setting": "[3]", "value": 349, "unit": "nM"}, {"measurement": "kon", "setting": "[3]", "value": 462000, "unit": "M⁻¹ s⁻¹"}, {"measurement": "Kd", "setting": "[4]", "value": 96.8, "unit": "nM"}, {"measurement": "kon", "setting": "[4]", "value": 536000, "unit": "M⁻¹ s⁻¹"}, {"measurement": "Kd", "setting": "[5]", "value": 48.9, "unit": "nM"}, {"measurement": "kon", "setting": "[5]", "value": 750000, "unit": "M⁻¹ s⁻¹"}, {"measurement": "Kd", "setting": "[6]", "value": 104, "unit": "nM"}, {"measurement": "kon", "setting": "[6]", "value": 376000, "unit": "M⁻¹ s⁻¹"}]}]}
